# Reference: patent US9150578B2, “5,8-dihydro-6H-pyrazolo[3,4-h]quinazolines as IGF-1R/IR inhibitors” (Boehringer Ingelheim International GmbH, priority 2012, dated 2015)
# Test system: TC-71 (Ewing's sarcoma) cells
# Assay: Cell proliferation assay, TC-71 (Alamar Blue)
# Format: cell-based
# Conditions: TC-71 cells, 72 h, read-out: TC71 EC50 range
# Description: Cell Proliferation Assays
# Published scientific data has described that interference with the Insulin-like Growth Factor-1 Receptor (IGF-1R) signaling pathway reduces the proliferation of TC-71 cells. Therefore TC-71 cells served as a positive control cell line for monitoring the activity of compounds against IGF-1R-mediated cell proliferation.
# 2000 TC-71 cells or 1000 HCT 116 cells were seeded per well in 180 μL IMDM+10% foetal calf serum (FCS)+penicillin/streptomycin into 96-well microtitre plates. The plates were placed in a cell culture incubator (37° C. in a humidified atmosphere of 95% […]/5 CO2) overnight. The following day, serial dilutions of compounds, prepared in duplicates, were transferred onto the cell layers (controls without compound). The cells were cultivated for a further 72 h in the cell culture incubator. 20 μL of Alamar Blue™ (Serotec Ltd, Düsseldorf, Germany) was added to each well and the plates incubated for 7 h in the cell culture incubator.
row,Compound,EC50 [nM]
1,COCCn1cc(-c2cccc(Cc3c4c(nn3C)CCc3cnc(Nc5ccn(C)n5)nc3-4)c2)cn1 [I-107],< 10
2,Cn1ccc(Nc2ncc3c(n2)-c2c(nn(C)c2Cc2cccc(-c4cnn(CCN5CCOCC5)c4)c2)CC3)n1 [I-108],< 10
3,Cn1ccc(Nc2ncc3c(n2)-c2c(nn(C)c2Cc2cccc(-c4cnn(CCO)c4)c2)CC3)n1 [I-110],< 10
4,CCn1ccc(Nc2ncc3c(n2)-c2c(nn(C)c2-c2ccc(-c4cnn(CCN5CCOCC5)c4)cc2)CC3)n1 [I-112],< 10
5,CCn1ccc(Nc2ncc3c(n2)-c2c(nn(C)c2-c2ccc(-c4cnn(CCN5CCN(C)CC5)c4)cc2)CC3)n1 [I-113],< 10
6,CCn1ccc(Nc2ncc3c(n2)-c2c(nn(C)c2-c2ccc(-c4cnn(CCN5CCN(CCO)CC5)c4)cc2)CC3)n1 [I-114],< 10
7,CCn1ccc(Nc2ncc3c(n2)-c2c(nn(C)c2-c2ccc(-c4cnn(CCNCCOC)c4)cc2)CC3)n1 [I-115],< 10
8,CCn1ccc(Nc2ncc3c(n2)-c2c(nn(C)c2-c2ccc(-c4cnn(CCN5CCCC5)c4)cc2)CC3)n1 [I-116],100 to 200
9,CCn1ccc(Nc2ncc3c(n2)-c2c(nn(C)c2-c2ccc(-c4cnn(CCN5CCN(CCOC)CC5)c4)cc2)CC3)n1 [I-117],< 10
10,CCn1ccc(Nc2ncc3c(n2)-c2c(nn(C)c2-c2ccc(-c4cnn(CCN5CCNCC5)c4)cc2)CC3)n1 [I-118],< 10
11,CCn1ccc(Nc2ncc3c(n2)-c2c(nn(C)c2-c2ccc(-c4cnn(CCN(C)CCOC)c4)cc2)CC3)n1 [I-120],< 10
12,COc1cc(C(=O)O)ccc1Nc1ncc2c(n1)-c1c(nn(C)c1-c1ccc(-c3cnn(C)c3)cc1)CC2 [I-121],< 10
13,CCn1cc(-c2ccc(-c3c4c(nn3C)CCc3cnc(Nc5ccc(C(=O)O)cc5OC)nc3-4)cc2)cn1 [I-124],< 10
14,COc1cc(C(=O)O)ccc1Nc1ncc2c(n1)-c1c(nn(C)c1-c1ccc(-c3cnn(C(C)C)c3)cc1)CC2 [I-125],< 10
15,COCCn1cc(-c2ccc(-c3c4c(nn3C)CCc3cnc(Nc5ccc(C(=O)O)cc5OC)nc3-4)cc2)cn1 [I-126],< 10
16,COc1cc(C(=O)O)ccc1Nc1ncc2c(n1)-c1c(nn(C)c1-c1ccc(-c3cnn(CC(C)C)c3)cc1)CC2 [I-127],10 to 100
17,CCCn1cc(-c2ccc(-c3c4c(nn3C)CCc3cnc(Nc5ccc(C(=O)O)cc5OC)nc3-4)cc2)cn1 [I-128],< 10
18,CNC(=O)c1ccc(Nc2ncc3c(n2)-c2c(nn(C)c2-c2ccc(-c4cnn(C)c4)cc2)CC3)c(OC)c1 [I-130],< 10
19,COc1cc(C(=O)N(C)C)ccc1Nc1ncc2c(n1)-c1c(nn(C)c1-c1ccc(-c3cnn(C)c3)cc1)CC2 [I-131],< 10

row,Compound,EC50 [nM]
1,COc1cc(C(=O)NC2CCN(C)CC2)ccc1Nc1ncc2c(n1)-c1c(nn(C)c1-c1ccc(-c3cnn(C)c3)cc1)CC2 [I-133],< 10
2,COc1cc(C(=O)NCCN(C)C)ccc1Nc1ncc2c(n1)-c1c(nn(C)c1-c1ccc(-c3cnn(C)c3)cc1)CC2 [I-134],< 10
3,COCCN1CCC(NC(=O)c2ccc(Nc3ncc4c(n3)-c3c(nn(C)c3-c3ccc(-c5cnn(C)c5)cc3)CC4)c(OC)c2)CC1 [I-135],< 10
4,COc1cc(C(=O)NCCCN(C)C)ccc1Nc1ncc2c(n1)-c1c(nn(C)c1-c1ccc(-c3cnn(C)c3)cc1)CC2 [I-136],< 10
5,CN(C)CCNC(=O)Cn1ccc(Nc2ncc3c(n2)-c2c(nn(C)c2-c2ccc(-c4cnn(C)c4)cc2)CC3)n1 [I-137],10 to 100
6,CNC(=O)Cn1ccc(Nc2ncc3c(n2)-c2c(nn(C)c2-c2ccc(-c4cnn(C)c4)cc2)CC3)n1 [I-138],< 10
7,Cn1cc(-c2ccc(-c3c4c(nn3C)CCc3cnc(Nc5ccn(CC(=O)N6CCCC6)n5)nc3-4)cc2)cn1 [I-139],< 10
8,COCCNC(=O)Cn1ccc(Nc2ncc3c(n2)-c2c(nn(C)c2-c2ccc(-c4cnn(C)c4)cc2)CC3)n1 [I-140],10 to 100
9,COCCN(C)C(=O)Cn1ccc(Nc2ncc3c(n2)-c2c(nn(C)c2-c2ccc(-c4cnn(C)c4)cc2)CC3)n1 [I-141],< 10
10,CN(C)CCCNC(=O)Cn1ccc(Nc2ncc3c(n2)-c2c(nn(C)c2-c2ccc(-c4cnn(C)c4)cc2)CC3)n1 [I-142],10 to 100
11,Cn1cc(-c2ccc(-c3c4c(nn3C)CCc3cnc(Nc5ccn(CC(=O)N6CCOCC6)n5)nc3-4)cc2)cn1 [I-144],< 10
12,COc1cc(C(=O)NC2CCN(C)CC2)ccc1Nc1ncc2c(n1)-c1c(nn(C)c1Cc1cccc(-c3cnn(C)c3)c1)CC2 [I-145],< 10
13,COc1cc(C(=O)NCCN(C)C)ccc1Nc1ncc2c(n1)-c1c(nn(C)c1Cc1cccc(-c3cnn(C)c3)c1)CC2 [I-146],< 10
14,COCCN1CCC(NC(=O)c2ccc(Nc3ncc4c(n3)-c3c(nn(C)c3Cc3cccc(-c5cnn(C)c5)c3)CC4)c(OC)c2)CC1 [I-147],< 10
15,CNC(=O)c1ccc(Nc2ncc3c(n2)-c2c(nn(C)c2Cc2cccc(-c4cnn(C)c4)c2)CC3)c(OC)c1 [I-148],< 10
16,COc1cc(C(=O)NCCCN(C)C)ccc1Nc1ncc2c(n1)-c1c(nn(C)c1Cc1cccc(-c3cnn(C)c3)c1)CC2 [I-149],< 10
17,COc1cc(C(=O)NCCN2CCN(C)CC2)ccc1Nc1ncc2c(n1)-c1c(nn(C)c1-c1ccc(-c3cnn(C)c3)cc1)CC2 [I-152],< 10
18,COc1cc(C(=O)NCCN2CCOCC2)ccc1Nc1ncc2c(n1)-c1c(nn(C)c1-c1ccc(-c3cnn(C)c3)cc1)CC2 [I-153],< 10
19,COCCCNC(=O)c1ccc(Nc2ncc3c(n2)-c2c(nn(C)c2-c2ccc(-c4cnn(C)c4)cc2)CC3)c(OC)c1 [I-154],< 10

row,Compound,EC50 [nM]
1,COc1cc(C(=O)N(C)CCN(C)C)ccc1Nc1ncc2c(n1)-c1c(nn(C)c1-c1ccc(-c3cnn(C)c3)cc1)CC2 [I-155],< 10
2,CCNC(=O)c1ccc(Nc2ncc3c(n2)-c2c(nn(C)c2-c2ccc(-c4cnn(C)c4)cc2)CC3)c(OC)c1 [I-157],< 10
3,CCCNC(=O)c1ccc(Nc2ncc3c(n2)-c2c(nn(C)c2-c2ccc(-c4cnn(C)c4)cc2)CC3)c(OC)c1 [I-158],< 10
4,COc1cc(C(=O)NCC2CCN(C)CC2)ccc1Nc1ncc2c(n1)-c1c(nn(C)c1-c1ccc(-c3cnn(C)c3)cc1)CC2 [I-159],< 10
5,COc1cc(C(=O)N(C)C2CCN(C)CC2)ccc1Nc1ncc2c(n1)-c1c(nn(C)c1-c1ccc(-c3cnn(C)c3)cc1)CC2 [I-161],< 10
6,COc1cc(C(=O)NC[C@@H]2CCCO2)ccc1Nc1ncc2c(n1)-c1c(nn(C)c1-c1ccc(-c3cnn(C)c3)cc1)CC2 [I-162],< 10
7,COCCN(C)C(=O)c1ccc(Nc2ncc3c(n2)-c2c(nn(C)c2-c2ccc(-c4cnn(C)c4)cc2)CC3)c(OC)c1 [I-165],< 10
8,COc1cc(N2CCN(C)CC2)ccc1Nc1ncc2c(n1)-c1c(nn(C)c1-c1ccc(-c3cnn(C)c3)cc1)CC2 [I-169],< 10
9,COc1cc(N2CCN(CCO)CC2)ccc1Nc1ncc2c(n1)-c1c(nn(C)c1-c1ccc(-c3cnn(C)c3)cc1)CC2 [I-174],< 10
10,Cn1cc(-c2ccc(-c3c4c(nn3C)CCc3cnc(Nc5ccn(C)n5)nc3-4)cn2)cn1 [I-179],10 to 100
11,CN(C)CCn1ccc(Nc2ncc3c(n2)-c2c(nn(C)c2-c2ccc(-c4cnn(C)c4)nc2)CC3)n1 [I-181],10 to 100
12,COCCn1ccc(Nc2ncc3c(n2)-c2c(nn(C)c2-c2ccc(-c4cnn(C)c4)nc2)CC3)n1 [I-182],10 to 100
13,CN(C)CCn1cc(Nc2ncc3c(n2)-c2c(nn(C)c2-c2ccc(-c4cnn(C)c4)nc2)CC3)cn1 [I-184],10 to 100
14,Cn1cc(Nc2ncc3c(n2)-c2c(nn(C)c2-c2ccc(-c4cnn(C)c4)nc2)CC3)cn1 [I-185],< 10
15,COCCn1cc(Nc2ncc3c(n2)-c2c(nn(C)c2-c2ccc(-c4cnn(C)c4)nc2)CC3)cn1 [I-186],10 to 100
16,CCn1cc(Nc2ncc3c(n2)-c2c(nn(C)c2-c2ccc(-c4cnn(C)c4)nc2)CC3)cn1 [I-187],< 10
17,Cn1cc(-c2ccc(-c3c4c(nn3C)CCc3cnc(Nc5cnn(CCN6CCOCC6)c5)nc3-4)cn2)cn1 [I-188],10 to 100
18,CC(C)n1cc(Nc2ncc3c(n2)-c2c(nn(C)c2-c2ccc(-c4cnn(C)c4)nc2)CC3)cn1 [I-189],< 10
19,COCCn1ccc(Nc2ncc3c(n2)-c2c(nn(C)c2-c2ccc(-c4cnn(CCN5CCO[C@@H](C)C5)c4)cc2)CC3)n1 [I-190],< 10
